Only a part is listed here, and it is no random draw. Activity calls are given as the source filed them.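 How the source made its calls: active means inhibition at or above 50% relative to wild type and mutant plate controls; inactive means inhibition below 50%.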

A short description of the experiment: inhibitors of Chlamydomonas gravitaxis, primary screen, whole organism, Chlamydomonas reinhardtii, WT vs cilia-less mutant, absorbance, 96-well (AID 463189).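 Further: 0% = wild type cc124 cells in DMSO and 100% = ciliumless bld1 mutant cells.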 The following applies: OD600 absorbance, 2 days, at 10 µM, stronger effect = higher value.
Regarding `CCN(CC)CC(O)COC(=O)C(O)(c1ccccc1)C1CCCCC1` (configuration not stated), the inhibition – broadly, the relative decrease from the control value, in per cent – was inactive: 3.15%.

For the compound `N#[O+].[C-]#N.[C-]#N.[C-]#N.[C-]#N.[C-]#N.[Fe+2].[Na+].[Na+]`, the inhibition is inactive: 7.22%.

(Values after PubChem BioAssay AID463189 (University of Pittsburgh Molecular Library Screening Center, 2010).)
